Usually IC50 stands for the concentration needed to halve the response being measured. Read a high IC50 as a need for much substance.

Assay [1] concerns the target T1, myeloperoxidase (Homo sapiens, UniProt P05164).
T1 sequence (P05164 49-745): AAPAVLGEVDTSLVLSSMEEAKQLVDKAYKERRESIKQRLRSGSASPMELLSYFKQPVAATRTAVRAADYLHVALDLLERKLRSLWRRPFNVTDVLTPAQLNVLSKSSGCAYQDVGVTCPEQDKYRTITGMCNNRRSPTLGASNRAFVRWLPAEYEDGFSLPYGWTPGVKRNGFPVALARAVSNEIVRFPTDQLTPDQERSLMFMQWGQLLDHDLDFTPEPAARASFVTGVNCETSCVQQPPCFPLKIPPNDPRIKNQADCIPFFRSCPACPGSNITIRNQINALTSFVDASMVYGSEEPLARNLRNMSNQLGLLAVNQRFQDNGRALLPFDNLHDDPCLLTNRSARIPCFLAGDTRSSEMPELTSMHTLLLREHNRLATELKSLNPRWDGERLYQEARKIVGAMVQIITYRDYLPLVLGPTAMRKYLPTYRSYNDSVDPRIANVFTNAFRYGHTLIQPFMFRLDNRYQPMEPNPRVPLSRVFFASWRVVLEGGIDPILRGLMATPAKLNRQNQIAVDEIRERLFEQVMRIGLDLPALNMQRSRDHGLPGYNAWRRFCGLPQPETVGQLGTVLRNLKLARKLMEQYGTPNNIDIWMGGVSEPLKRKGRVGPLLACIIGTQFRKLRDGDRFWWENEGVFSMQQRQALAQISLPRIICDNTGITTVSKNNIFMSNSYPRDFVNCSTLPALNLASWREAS
Description: MPO Peroxidation Assay (Amplex Red Assay). The following applies: potency range class. It counts as biochemical.

For assay [2], the target named is T1, myeloperoxidase. Description: MPO Chlorination Assay (APF Assay). In kind it is biochemical. As to conditions: potency range class.

Take `Nc1cc(C(CCNC23CC(c4ccccc4)(C2)C3)c2ccccc2)c2nn[nH]c2n1` (centres unmarked) [Example 111, 7-[1-phenyl-3-({3-phenylbicyclo[1.1.1]pentan-1-yl}amino)propyl]-3H-[1,2,3] triazolo[4,5-b] pyridin-5-amine]: the IC50 in assay [1] lay within 101 to 999 nM; in assay [2], 1 to 100 nM.

The values are drawn from US11008317B2, “Triazolopyridine inhibitors of myeloperoxidase and/or EPX” (priority 2016, dated 2021).
